Source: PubChem BioAssay
PDI inh = inhibitors of human protein disulfide isomerase. PDI insulin aggregation turbidity, A650, 90 min. actives 0.052% (n = 350,000). inhibition, % at 10 µM. P07237;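 active = mean inhibition across replicates of 30% or more, whatever share of single replicates reach that level; inconclusive = mean inhibition below 30% while every single replicate reaches 30%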
Cneo AK release = causes C. neoformans cell lysis. adenylate kinase release luminescence, 4 h; normalised: neutral wells 0, clomiphene wells 100. lysis activity, % at 15 µM. actives 0.2% (n = 360,000). AID 651654;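 active = mean lysis activity across replicates of at least 80%, whatever share of replicates individually reach that level; inactive = mean lysis activity below 80%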
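Material – log-phase Cryptococcus neoformans yeast cells · Input – 5 × 10^6 yeast cells/mL · Medium – fresh YPD growth medium · Doses – single compound concentration per well · Timing – static 4 h at 37 °C with compound, 1 h detection · Detection – adenylate kinase release luminescence · Read-out – signal increase indicating cell lysis · Control set – Clomiphene as positive lysis control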
ERp5 block = inhibitors of human ERp5. AID 651711. ERp5 insulin aggregation, absorbance 650 nm, 90 min. Q15084. actives 0.05% (n = 350,000). inhibition, % at 9.99 µM;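 active = mean replicate inhibition above about 25%, with every replicate also reaching it, limit read from the data, passing the limit was not always enough; inconclusive = only one of those two criteria met; inactive = neither criterion met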
Yeast UUG start = alters start codon recognition fidelity in yeast | S. cerevisiae UUG-firefly luciferase reporter, luminescence/redox ratio | activity score, % at 18.7 µM | 350,000 compounds, 0.13% hits | AID 602363;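 active = replicate mean at a twofold rise or more, about +100% in these data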;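 note: firefly luciferase made from a UUG start codon reports start codon fidelity; reporter light over untreated wells divided by growth signal over untreated wells; some hits fall short of that in this replicate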
An asterisk follows results filed as active; ? = inconclusive; · = no result given. The list is not random: actives were taken first. Their share in the collection is about 0.34%.

#1 C[C@H](CO)N1C[C@H](C)[C@@H](CN(C)S(C)(=O)=O)Oc2ccc(NC(=O)Cc3cn(C)c4ccccc34)cc2CC1=O
#2 CN(C)c1ccc2c(c1)[C@@H]1C[C@@H](CC(=O)NC3CCCCC3)O[C@@H](CO)[C@@H]1O2
#3 C[C@@H]1CN([C@H](C)CO)C(=O)c2cc(NC(=O)Nc3cccc4ccccc34)ccc2O[C@@H](C)CCCCO[C@@H]1CN(C)Cc1ccc2c(c1)OCO2
#4 C[C@@H]1CCCCO[C@@H](CN(C)C(=O)Nc2ccc3c(c2)OCO3)[C@H](C)CN([C@H](C)CO)C(=O)c2cc(NC(=O)Nc3cccc4ccccc34)ccc2O1
#5 C[C@@H]1CCCCO[C@@H](CN(C)C(=O)Nc2ccc3c(c2)OCO3)[C@@H](C)CN([C@H](C)CO)C(=O)c2cc(NC(=O)Nc3cccc4ccccc34)ccc2O1
#6 C[C@H]1CCCCO[C@H](CN(C)Cc2ccc3c(c2)OCO3)[C@@H](C)CN([C@@H](C)CO)C(=O)c2cc(NC(=O)Nc3cccc4ccccc34)ccc2O1
#7 Cc1cccc(S(=O)(=O)N(C)C[C@H]2OCc3cn(nn3)CCCC(=O)N([C@H](C)CO)C[C@H]2C)c1
#8 COC(=O)C[C@@H]1CC[C@@H]2[C@H](COc3ccc(NC(=O)C4CCOCC4)cc3C(=O)N2C)O1

Assay by compound,1,2,3,4,5,6,7,8
PDI inh,·,·,·,·,·,·,·,·
Cneo AK release,41,-3,84*,·,105*,1,12,5
ERp5 block,3,1,·,0,-5,·,14,1
Yeast UUG start,23,·,33,·,10,-7,-6,7

#9 Cc1c(-n2cc(C(=O)c3ccccc3O)cc(C#N)c2=O)c(=O)n(-c2ccccc2)n1C
#10 O=C(NC1CCCC1)N1CC(=O)N2[C@H](CO)[C@@H](c3ccc(-c4cccc(F)c4)cc3)[C@H]2C1
#11 CO[C@@H]1CC[C@@H]2CCOc3c(C#N)cccc3C(=O)N(C)C[C@H](c3ccccc3)CC(=O)N(C)C[C@@H]1O2
#12 CO[C@H]1CC[C@H]2CCOc3c(C#N)cccc3C(=O)N(C)C[C@H](c3ccccc3)CC(=O)N(C)C[C@@H]1O2
#13 O=C(/C=C/c1ccc(Cl)c([N+](=O)[O-])c1)Nc1ccc(NC(=O)c2ccco2)cc1
#14 O=C(Nc1ccc(Cl)c([N+](=O)[O-])c1)c1ccco1
#15 Cc1ccc(-c2cnc3c(c2)C(=O)N([C@H](C)CO)C[C@@H](C)[C@@H](CN(C)C(=O)c2cccc(F)c2)O3)cc1
#16 CCCCC(=O)OC1CCC2C3CCc4cc(O)ccc4C3CCC12C (stereo unspecified)

Assay by compound,9,10,11,12,13,14,15,16
PDI inh,89*,·,·,·,2,4,·,71*
Cneo AK release,-3,·,83*,27,·,112*,1,-3
ERp5 block,·,2,1,1,0,-3,1,1
Yeast UUG start,-9,·,·,·,·,-11,-10,-13

#17 CC(C)(C)c1cc(NC(=O)c2ccco2)no1
#18 COc1cc(CO)cc(I)c1O[C@H]1C=C(C(=O)NCCO)C[C@@H](N(CC2CCCCC2)C(=O)c2cc3ccccc3oc2=O)[C@@H]1O
#19 CCn1c(O)c(/C=C2\C=Nc3ccccc32)sc1=Nc1ccccc1
#20 Cn1c(O)c(/C=C2\C=Nc3ccccc32)sc1=Nc1ccc(C(=O)O)cc1
#21 COc1ccc(C#Cc2cnc3c(c2)C(=O)N([C@@H](C)CO)C[C@@H](C)[C@@H](CN(C)C(=O)CC2CC2)O3)cc1
#22 COCC#Cc1cnc2c(c1)C(=O)N([C@@H](C)CO)C[C@H](C)[C@H](CN(C)C(=O)Nc1ccc(OC)cc1)O2
#23 COc1ccc(C#Cc2cnc3c(c2)C(=O)N([C@@H](C)CO)C[C@H](C)[C@@H](CN(C)C(=O)CC2CC2)O3)cc1
#24 CCCC#Cc1cnc2c(c1)C(=O)N([C@H](C)CO)C[C@@H](C)[C@@H](CN(C)C(=O)Nc1ccc(OC)cc1)O2

Assay by compound,17,18,19,20,21,22,23,24
PDI inh,8,·,-3,54*,·,·,·,·
Cneo AK release,-8,92*,-2,-1,1,109*,88*,-1
ERp5 block,28*,3,-4,-1,9,?,-2,3
Yeast UUG start,-8,·,-17,-24,·,7,·,5

#25 C[C@H]1CN([C@@H](C)CO)C(=O)c2cc(NS(=O)(=O)c3ccccc3)ccc2O[C@@H]1CN(C)Cc1ccc(C(=O)O)cc1
#26 CC(=O)c1ccc(N2CCN(C(=O)Cc3cccs3)CC2)cc1
#27 C[C@@H]1CN([C@@H](C)CO)C(=O)c2cc(NC(=O)CCN3CCOCC3)ccc2O[C@H]1CN(C)S(=O)(=O)c1cn(C)cn1
#28 COc1ccc(-c2cc3nc(CCl)[nH]c(=O)c3s2)cc1
#29 CCNC(=O)Nc1ccc2c(c1)C(=O)N(C)[C@H]1CC[C@H](CC(=O)N[C@@H](C)c3ccccc3)O[C@H]1CO2
#30 CCNC(=O)Nc1ccc2c(c1)C(=O)N(C)[C@@H]1CC[C@H](CC(=O)N[C@@H](C)c3ccccc3)O[C@@H]1CO2
#31 CCNC(=O)Nc1ccc2c(c1)C(=O)N(C)[C@H]1CC[C@@H](CC(=O)N[C@H](C)c3ccccc3)O[C@H]1CO2
#32 O=C(c1cc([N+](=O)[O-])ccc1N1CCOCC1)N1CCCCC1

Assay by compound,25,26,27,28,29,30,31,32
PDI inh,·,-3,·,39*,·,·,·,14
Cneo AK release,1,153*,46,-4,91*,193*,-11,·
ERp5 block,5,16,-3,0,-6,-1,2,0
Yeast UUG start,23,-1,2,-64,·,·,·,·

#33 O=C(c1cc([N+](=O)[O-])ccc1N1CCOCC1)N1CCN(c2ccc([N+](=O)[O-])cc2)CC1
#34 COC(=O)C1C2CC3c4[nH]c5cc(OC)ccc5c4CCN3CC2CC(OC(=O)CC(C)=O)C1OC (stereo unspecified)
#35 CCOC(=O)Oc1c(OC)cc(C(=O)O[C@@H]2C[C@@H]3CN4CCc5c([nH]c6cc(OC)ccc56)[C@H]4C[C@@H]3[C@H](C(=O)OC)[C@H]2OC)cc1OC
#36 Cc1ccc(C(=O)Nc2ccc3ncccc3c2)cc1
#37 CCCCn1c(SCC(=O)Nc2ccc(C)c(S(=O)(=O)N3CCOCC3)c2)nnc1C(CC)N(C)C (stereo unspecified)
#38 CCC(=O)Nc1ccc2c(c1)OC[C@H](C)N(C(=O)COC)C[C@@H](C)[C@H](OC)CN(C)C2=O
#39 CO[C@H]1CN(C)C(=O)c2cc(NC(=O)C3CC3)ccc2OC[C@@H](C)N(Cc2cncnc2)C[C@H]1C
#40 CCCC(=O)Nc1ccc2c(c1)OC[C@@H](C)N(Cc1cncnc1)C[C@@H](C)[C@@H](OC)CN(C)C2=O

Assay by compound,33,34,35,36,37,38,39,40
PDI inh,36*,7,35*,3,32*,·,·,·
Cneo AK release,2,·,-2,129*,-1,-3,84*,94*
ERp5 block,-5,-1,?,-3,0,-8,1,2
Yeast UUG start,-18,·,-25,-68,8,·,·,7

3 entries picked at random from the list so far:
#21 COc1ccc(C#Cc2cnc3c(c2)C(=O)N([C@@H](C)CO)C[C@@H](C)[C@@H](CN(C)C(=O)CC2CC2)O3)cc1
#38 CCC(=O)Nc1ccc2c(c1)OC[C@H](C)N(C(=O)COC)C[C@@H](C)[C@H](OC)CN(C)C2=O
#31 CCNC(=O)Nc1ccc2c(c1)C(=O)N(C)[C@H]1CC[C@@H](CC(=O)N[C@H](C)c3ccccc3)O[C@H]1CO2

Assay by compound,21,38,31
PDI inh,·,·,·
Cneo AK release,1,-3,-11
ERp5 block,9,-8,2
Yeast UUG start,·,·,·

Additional results follow:
#41 CCCNC(=O)Nc1ccc2c(c1)C(=O)N(C)C[C@H](OC)[C@@H](C)CN(Cc1cccnc1)[C@H](C)CO2
#42 COc1ccccc1C(=O)Nc1ccc2c(c1)C(=O)N(C)C[C@H](OC)[C@@H](C)CN(CC1CC1)[C@@H](C)CO2
#43 COc1cc(CN2CC3(CCN(C(=O)Nc4c(C)noc4C)CC3)c3c([nH]c4cc(OC)ccc34)[C@H]2CO)cc(OC)c1
#44 O=C(C[C@@H]1CC[C@H](NC(=O)Cc2ccccn2)[C@H](CO)O1)NCCc1ccccc1

Assay by compound,41,42,43,44
PDI inh,·,·,·,·
Cneo AK release,81*,96*,·,81*
ERp5 block,-4,-1,4,·
Yeast UUG start,11,6,·,1
